Source: PMC4835042 (Bioorganic & medicinal chemistry letters, 2015)

Tested on: amphetamine-induced hyperlocomotion
Settings: 100 mg/kg p.o., rat

## O=C1c2cc(COc3ccccc3)nn2CCN1c1ccc(F)cn1 [4k]
  reversal of amphetamine-induced hyperlocomotion at 100 mg/kg: full reversal
